Measurements reported in article PMC7669678 (DNA repair, 2020).

Biological target: T1, GST-C17orf53 (human, UniProt Q8N3J3 1-647)
T1 sequence (looked up): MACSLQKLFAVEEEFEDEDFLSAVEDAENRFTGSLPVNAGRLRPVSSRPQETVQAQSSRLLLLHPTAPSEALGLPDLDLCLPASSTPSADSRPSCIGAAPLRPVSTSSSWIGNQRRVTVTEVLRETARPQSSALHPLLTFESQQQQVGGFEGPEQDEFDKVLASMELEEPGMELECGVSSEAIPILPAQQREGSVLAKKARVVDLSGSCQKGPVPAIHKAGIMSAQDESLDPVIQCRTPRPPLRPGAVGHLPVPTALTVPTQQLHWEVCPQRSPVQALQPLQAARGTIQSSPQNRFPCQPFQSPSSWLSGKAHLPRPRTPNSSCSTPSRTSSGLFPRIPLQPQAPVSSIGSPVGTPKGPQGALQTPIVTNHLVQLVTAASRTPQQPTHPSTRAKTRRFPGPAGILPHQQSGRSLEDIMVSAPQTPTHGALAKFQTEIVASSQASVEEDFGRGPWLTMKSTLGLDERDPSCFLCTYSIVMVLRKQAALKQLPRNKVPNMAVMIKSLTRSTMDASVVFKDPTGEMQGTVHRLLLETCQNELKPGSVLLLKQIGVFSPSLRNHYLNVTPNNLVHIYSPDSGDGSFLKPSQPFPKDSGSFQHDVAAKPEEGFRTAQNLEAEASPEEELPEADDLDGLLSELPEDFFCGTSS
Assay: pull-down

B1: MBP-tagged RPA2 (natural protein, UniProt P15927 1-270, looked up)
chain: MWNSGFESYGSSSYGGAGGYTQSPGGFGSPAPSQAEKKSRARAQHIVPCTISQLLSATLVDEVFRIGNVEISQVTIVGIIRHAEKAPTNIVYKIDDMTAAPMDVRQWVDTDDTSSENTVVPPETYVKVAGHLRSFQNKKSLVAFKIMPLEDMNEFTTHILEVINAHMVLSKANSQPSAGRAPISNPGMSEAGNFGGNSFMPANGLTVAQNQVLNLIKACPRPEGLNFQDLKNQLKHMSVSSIKQAVDFLSNEGHIYSTVDDDHFKSTDAE
B1: binds.
